# Measured values taken from patent US9439918B2 (priority 2008, dated 2016).
# Tested on: Salmonella spp. (20)
# Experiment: MIC, CLSI broth microdilution
# Format: cell-based
structure (smiles),measurement,value
CCC[C@@H]1C[C@@H](C(=O)N[C@@H]([C@H]2O[C@H](SC)[C@H](O)[C@@H](O)[C@H]2O)[C@H](C)Cl)N(C)C1 [Clindamycin],MIC50,> 4 µg/mL
same,MIC90,> 4 µg/mL
